From patent US20030232419A1, “Molecules interacting with CASL (MICAL) polynucleotides, polypeptides, and methods of using the same” (priority 2002, published 2003)

Legend:
[1] = molecular target: T1, matrix metalloproteinase MMP-2 (Homo sapiens, UniProt P08253); settings: similar concentrations of EGCG; cited from earlier work
T1 sequence (P08253 110-660): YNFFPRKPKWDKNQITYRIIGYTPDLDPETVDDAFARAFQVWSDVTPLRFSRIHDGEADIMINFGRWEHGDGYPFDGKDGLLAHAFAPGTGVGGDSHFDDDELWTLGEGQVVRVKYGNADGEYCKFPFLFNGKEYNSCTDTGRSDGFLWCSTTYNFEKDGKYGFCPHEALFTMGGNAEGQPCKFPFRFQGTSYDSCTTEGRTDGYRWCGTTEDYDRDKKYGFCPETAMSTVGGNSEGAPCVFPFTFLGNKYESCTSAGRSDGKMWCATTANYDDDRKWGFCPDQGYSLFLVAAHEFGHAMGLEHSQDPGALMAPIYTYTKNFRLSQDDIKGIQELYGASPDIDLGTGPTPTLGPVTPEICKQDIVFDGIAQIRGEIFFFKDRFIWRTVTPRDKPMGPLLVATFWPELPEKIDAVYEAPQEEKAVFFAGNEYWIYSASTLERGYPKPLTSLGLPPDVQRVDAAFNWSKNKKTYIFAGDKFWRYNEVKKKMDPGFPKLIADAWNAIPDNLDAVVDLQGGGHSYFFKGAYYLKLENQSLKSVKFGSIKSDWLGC

[2] = system: Sema3A-mediated axonal repulsion of NGF-dependent DRG axons; experiment: in vitro rat DRG growth cone repulsion assay using Sema 3A-secreting 293 cells; assay type: cell-based; settings: inhibitor in growth media, several concentrations; much higher EC than EGCG concentration required
Description: FIG. 4A provides a schematic diagram of the rat D E14/15 Rat DRG explants were co-cultured with 293 cells expressing Sema 3A and grown for 48 hours in the presence of an inhibitor or vehicle. Axonal outgrowth was determined by measuring proximal (P) and distal (D) axon lengths.
DRG repulsion assays were performed as described (Messersmith et al., 1995).
Scoring was done by splitting explants into quadrants and scoring all growth cones as either collapsed or not-collapsed.

(−)-epigallocatechin gallate [EGCG]
inhibition of MMP-2 [1]: inhibit | attenuation of Sema3A-mediated axonal repulsion (P/D ratio) [2]: in a dose-dependent manner
